The values below come from US8981092B2, “Substituted 3,4-dihydro-2H-pyrrolo[1,2-a]pyrazin-1-ones as modulators of protein kinase activity” (Nerviano Medical Sciences S.r.l., priority 2008, dated 2015).

By UniProt entry, the sequences of proteins in these tests, tags left out.
UniProt P11309, whole entry: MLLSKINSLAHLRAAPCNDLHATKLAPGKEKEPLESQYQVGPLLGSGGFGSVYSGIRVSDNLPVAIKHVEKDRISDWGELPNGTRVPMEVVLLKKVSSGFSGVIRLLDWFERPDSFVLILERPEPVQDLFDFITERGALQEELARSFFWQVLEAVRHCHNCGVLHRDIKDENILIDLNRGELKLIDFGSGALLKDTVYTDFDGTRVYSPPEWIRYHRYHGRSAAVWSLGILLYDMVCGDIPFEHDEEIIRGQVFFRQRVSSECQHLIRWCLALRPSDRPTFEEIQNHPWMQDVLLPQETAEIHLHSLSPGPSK

For orientation: IC50 means the concentration that gives 50% inhibition. A low value points to higher potency.

This assay addresses Full-length human PIM-1 (Homo sapiens, UniProt P11309).
`O=C(CC1CNC(=O)c2cc(-c3ccc(F)cc3)cn21)NCc1cccc(F)c1` (centres unmarked) yielded an IC50 of 120 nM.

Consider `O=C(CC1CNC(=O)c2cc(-c3ccc(F)cc3)cn21)NCc1ccccc1` (centres unmarked), for which the IC50 was found to be 280 nM.

As for `O=C(C[C@@H]1CNC(=O)c2cc(-c3cccc(F)c3)cn21)N[C@H](CO)c1ccccc1`, the concentration for half-maximal inhibition (IC50) was found to be 1840 nM.

As to `O=C(C[C@H]1CNC(=O)c2cc(-c3cccc(C(F)(F)F)c3)cn21)N[C@H](CO)Cc1ccccc1`, the IC50 is 560 nM.

As for `O=C(CC1CNC(=O)c2cc(-c3cccc(C(F)(F)F)c3)cn21)NC1CCOCC1` (centres unmarked), the IC50 stood at 840 nM.

Molecule `O=C(CC1CNC(=O)c2cc(-c3cccc(OC(F)(F)F)c3)cn21)NC1CCOCC1` (centres unmarked) displayed an IC50 of 360 nM.

The molecule `Cc1cccc(-c2cc3n(c2)C(CC(=O)NCc2ccncc2)CNC3=O)c1` (centres unmarked) yielded an IC50 of 920 nM.

`Cc1cccc(-c2cc3n(c2)C(CC(=O)NCc2ccccc2)CNC3=O)c1` (centres unmarked) registered an IC50 of 400 nM.

`O=C(C[C@@H]1CNC(=O)c2cc(-c3cccc(F)c3)cn21)N[C@H](CO)C1CCCCC1` had an IC50 of 380 nM.

As for `O=C(C[C@H]1CNC(=O)c2cc(-c3cccc(F)c3)cn21)N[C@H](CO)Cc1ccccc1`, the IC50 worked out at 140 nM.

In the case of `CSc1cccc(-c2cc3n(c2)C(CC(=O)NCc2cccc(F)c2)CNC3=O)c1` (centres unmarked), the IC50 came to 490 nM.

As to `O=C(CC1CNC(=O)c2cc(-c3cccc(F)c3)cn21)NCc1ccco1` (centres unmarked), the IC50 was found to be 230 nM.

As for `COC(=O)c1cccc(-c2cc3n(c2)C(CC(=O)NC2CCOCC2)CNC3=O)c1` (centres unmarked), the IC50 was 3720 nM.

Turning to `Cc1ccc(CNC(=O)CC2CNC(=O)c3cc(-c4cccc(F)c4)cn32)o1` (centres unmarked), the half-inhibitory concentration (IC50) came to 520 nM.
